These results are taken from US6462016.

Test [1] deals with maxadilan receptor of the rabbit (maxadilan-specific receptor in crude membrane fractions from rabbit brain and rabbit spleen) (rabbit). The experiment in a line: ^125I-Max saturation binding and Scatchard plot, rabbit brain crude membrane fraction.
In test [2] the target is maxadilan receptor of the rat (in the crude membrane fraction from rat brain and on PC-12 cells) (rat). The experiment in a line: ^125I-Max saturation binding and Scatchard plot, rat brain crude membrane fraction.
For test [3], the target named is maxadilan receptor of the rabbit (maxadilan-specific receptor in crude membrane fractions from rabbit brain and rabbit spleen) (rabbit). Description: ^125I-Max saturation binding and Scatchard plot, rabbit spleen crude membrane fraction.
In test [4] the target is maxadilan receptor of the mouse (in the crude membrane fraction from mouse brain) (mouse). Description: ^125I-Max saturation binding and Scatchard plot, mouse brain crude membrane fraction.
Test [5] addresses maxadilan receptor of cattle (in the crude membrane fraction from bovine brain) (cattle). The experiment in a line: ^125I-Max saturation binding and Scatchard plot, cattle brain crude membrane fraction.
Test [6] concerns the target maxadilan receptor of the rabbit (maxadilan-specific receptor in crude membrane fractions from rabbit brain and rabbit spleen) (rabbit).

For the substance “maxadilan (recombinant represented by SEQ ID NO: 2, peptide fragment GSIL- bound to the N-terminal cysteine of natural maxadilan) (from UniProt P30659 24-86) (ligand)”, the Bmax turned out to be 30 fmol/mg in test [1]; 68 fmol/mg in test [2]; 9 fmol/mg in test [3]; 53 fmol/mg in test [4]; 17 fmol/mg in test [5]. Further, the IC50 in test [6] was 3.6 nM.
On to “variant maxadilan M65 (from UniProt P30659 24-86) (ligand)”, for which, in test [6], the 50% inhibitory concentration (IC50) came out at 1.7 nM.
On the same count and under the same terms, as for “variant maxadilan NSP (from UniProt P30659 29-86) (ligand)”, the figure is 2 nM.
